We go through one molecule from US20170166655A1 (published 2017).

What all share (assay): SPR
On the technique in general: Surface plasmon resonance follows binding to a sensor surface in real time, without labels.

The target of assay [1] is T1, human FcγRI, extracellular region (human, UniProt P12314 16-292).
T1 chain: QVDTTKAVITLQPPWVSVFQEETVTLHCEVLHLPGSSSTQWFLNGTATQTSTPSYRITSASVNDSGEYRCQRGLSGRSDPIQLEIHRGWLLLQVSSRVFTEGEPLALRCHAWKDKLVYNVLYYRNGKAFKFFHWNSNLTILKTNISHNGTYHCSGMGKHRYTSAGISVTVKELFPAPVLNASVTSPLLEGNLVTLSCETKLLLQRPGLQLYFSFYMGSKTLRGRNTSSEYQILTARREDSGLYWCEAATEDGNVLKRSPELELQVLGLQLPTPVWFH

Assay [2] has as its target T2, human R131 FcγRIIa, extracellular region (human, UniProt P12318 34-217).
T2 chain: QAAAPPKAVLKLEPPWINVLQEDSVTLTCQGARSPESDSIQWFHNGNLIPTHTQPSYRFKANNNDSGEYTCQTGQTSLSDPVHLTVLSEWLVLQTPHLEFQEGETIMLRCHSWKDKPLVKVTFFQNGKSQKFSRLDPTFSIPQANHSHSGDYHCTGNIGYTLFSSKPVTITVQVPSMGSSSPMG

The target of assay [3] is T3, human FcγRIIb, extracellular region (human, UniProt P31994 43-217).
T3 chain: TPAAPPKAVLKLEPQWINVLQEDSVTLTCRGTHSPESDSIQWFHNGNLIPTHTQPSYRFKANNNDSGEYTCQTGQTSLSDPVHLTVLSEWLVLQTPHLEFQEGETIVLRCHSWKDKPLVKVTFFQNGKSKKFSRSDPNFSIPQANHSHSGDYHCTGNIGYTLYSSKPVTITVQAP

B1: WT IgG4 (antibody)
chain: ASTKGPSVFPLAPCSRSTSESTAALGCLVKDYFPEPVTVSWNSGALTSGVHTFPAVLQSSGLYSLSSVVTVPSSSLGTKTYTCNVDHKPSNTKVDKRVESKYGPPCPSCPAPEFLGGPSVFLFPPKPKDTLMISRTPEVTCVVVDVSQEDPEVQFNWYVDGVEVHNAKTKPREEQFNSTYRVVSVLTVLHQDWLNGKEYKCKVSNKGLPSSIEKTISKAKGQPREPQVYTLPPSQEEMTKNQVSLTCLVKGFYPSDIAVEWESNGQPENNYKTTPPVLDSDGSFFLYSRLTVDKSRWQEGNVFSCSVMHEALHNHYTQKSLSLSLGK
With B1, the Kd (as a rule, the equilibrium constant for the complex coming apart) in assay [1] stood at 8.32 nM; in assay [2], 4070 nM; in assay [3] it was 2000 nM.
